Sequences of proteins named here, by UniProt entry; tags and fusion partners are left off.
UniProt P23977, whole entry: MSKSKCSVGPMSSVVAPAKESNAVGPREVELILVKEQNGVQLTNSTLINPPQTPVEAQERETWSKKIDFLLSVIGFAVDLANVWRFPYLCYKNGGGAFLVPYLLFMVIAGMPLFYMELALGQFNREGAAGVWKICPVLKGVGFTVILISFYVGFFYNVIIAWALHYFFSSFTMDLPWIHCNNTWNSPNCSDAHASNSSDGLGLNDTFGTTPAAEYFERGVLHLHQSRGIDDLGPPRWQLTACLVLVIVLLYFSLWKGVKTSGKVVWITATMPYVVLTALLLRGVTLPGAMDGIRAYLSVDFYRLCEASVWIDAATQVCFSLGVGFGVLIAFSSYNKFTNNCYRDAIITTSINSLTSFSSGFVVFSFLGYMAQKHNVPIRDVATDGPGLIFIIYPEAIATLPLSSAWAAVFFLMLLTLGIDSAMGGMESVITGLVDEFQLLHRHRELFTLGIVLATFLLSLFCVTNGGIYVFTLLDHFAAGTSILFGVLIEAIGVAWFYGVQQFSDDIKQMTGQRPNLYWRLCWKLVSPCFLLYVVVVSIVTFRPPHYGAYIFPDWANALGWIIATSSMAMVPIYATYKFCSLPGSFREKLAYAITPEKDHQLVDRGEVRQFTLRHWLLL

In patent US6537522B1, “Neuroprobes for mapping monoamine reuptake sites” (Amersham PLC, priority 1992, dated 2003):

Target: T1, DAT (dopamine transporter) (Rattus norvegicus, UniProt P23977)
T1 construct: a crude membrane fraction of homogenates of rat brain corpus striatum (for DAT assays); from tissue; host or cells: rat brain corpus striatum, crude membrane fraction
Test: DAT assay, [3H]GBR-12935 binding, rat brain corpus striatum membranes
Settings: radioligand, 13 Ci/mmol
Description: N-phthalimidopropyl-β-CIT (see Example 10) was analyzed as follows. Stock solutions (1 mM) of test agents were made in 95% ethanol/DMSO (1/1, v/v) and stored at −5° C. until used by diluting in a large excess of each assay buffer. Agents are tested at six concentrations in duplicate, with a crude membrane fraction of homogenates of rat brain corpus striatum (for DAT assays) in Tris-citrate buffer (pH 7.4) containing Na^+ ([…]) and Mg^2+ (4 mM) or frontoparietal cerebral cortex (for 5-HTT and NET) in 50 mM Tris-HCl buffer (pH 7.4) containing Na^+ ([…]) and K^+ (5 mM) following methods reported by Neumeyer et al., J. Med. Chem. 37, 1558-1561 (1991), the whole of which is incorporated by reference herein.

## c1ccc(CCCN2CCN(CCOC(c3ccccc3)c3ccccc3)CC2)cc1 [[^3H]GBR-12935, reference compound]
  Kd: 1 nM
